Experimental data reported in PubChem BioAssay (NCI).
“And” between values parts separate entries of the source, which are not always exact repeats. Equal values may be shown once. The list shows a part of the results, in another mix than the full data. The source holds several records for some structures; these can differ, active in one and inactive in another. The source made the active and inactive calls. Rule as the data show it: active = growth inhibition above about 70%; inactive = the rest.

What was measured:
[1] = NCI Yeast Anticancer Drug Screen. Data for the rad50 strain (AID 155);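 also: 0% = growth of vehicle-only cultures of the same strain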; settings: S. cerevisiae rad50 strain growth inhibition, hits give high values
[2] = NCI Yeast Anticancer Drug Screen. Data for the mec2-1 strain (AID 157); settings: S. cerevisiae mec2-1 strain, hits give high values
[3] = NCI Yeast Anticancer Drug Screen. Data for the sgs1 mgt1 strain (AID 161);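 also: 0% = growth of cultures given vehicle only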; settings: S. cerevisiae sgs1 mgt1 strain, hits give high values
[4] = NCI Yeast Anticancer Drug Screen. Data for the cln2 rad14 strain (AID 165);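 also: 0% = growth equal to vehicle treated cultures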; settings: S. cerevisiae cln2 rad14 strain, hits give high values
[5] = NCI Yeast Anticancer Drug Screen. Data for the bub3 strain (AID 167); settings: S. cerevisiae bub3 mutant strain, hits give high values
[6] = NCI Yeast Anticancer Drug Screen. Data for the mlh1 rad18 strain (AID 175); settings: S. cerevisiae mlh1 rad18 strain growth inhibition, hits give high values
[7] = at 5.0 µM (retest, dose inferred, filed as 0.5)
[8] = at 50.0 µM (retest, dose inferred, filed as 5.0)

Measured: growth inhibition

O=[N+]([O-])c1ccc([N+](=O)[O-])cc1
inactive: [1]; [7] 34% | [2]; [7] 33% | [3]; [7] 51% | [4]; [7] 20% | [5]; [7] 18% | [6]; [7] 56%
active: [1]; [8] 99% | [1]; at 50.0 µM 99.3% | [2]; [8] 100% | [2]; at 50.0 µM 99.7% | [3]; [8] 99% | [3]; at 50.0 µM 99.5% | [4]; [8] 99% | [4]; at 50.0 µM 98.8% | [5]; [8] 99% | [5]; at 50.0 µM 99.2% | [6]; [8] 99% | [6]; at 50.0 µM 99.5%

CCC(/C=N/Nc1ccc([N+](=O)[O-])cc1[N+](=O)[O-])=N/Nc1ccc([N+](=O)[O-])cc1[N+](=O)[O-]
inactive: [1]; [7] 0% | [1]; [8] -7% | [1]; at 50.0 µM -66.7% | [2]; [7] 1% | [2]; [8] -4% | [2]; at 50.0 µM -9.55% | [3]; [7] 1% | [3]; [8] 3% | [3]; at 50.0 µM -17.1% | [4]; [7] 2% | [4]; [8] -3% | [4]; at 50.0 µM -29.4% | [5]; [7] 1% | [5]; [8] -7% | [5]; at 50.0 µM 5.25% | [6]; [7] 2% | [6]; [8] -5% | [6]; at 50.0 µM -9.45%

C1=C(CCc2ccccc2)c2ccc3ccccc3c2CC1
inactive: [1]; [7] 27% | [2]; [7] 20% | [3]; [7] 48% | [4]; [7] 4% | [5]; [7] 50% | [6]; [7] 25%
active: [1]; [8] 82% | [1]; at 50.0 µM 91.8% | [2]; [8] 91% | [2]; at 50.0 µM 95% | [3]; [8] 87% | [3]; at 50.0 µM 93.2% | [4]; [8] 83% | [4]; at 50.0 µM 86.1% | [5]; [8] 87% | [5]; at 50.0 µM 84.9% | [6]; [8] 87% | [6]; at 50.0 µM 92.7%

O=C1OC(C(Cl)(Cl)Cl)Sc2ccccc21 (stereo unspecified)
active: [1]; at 50.0 µM 95.7% | [2]; at 50.0 µM 97% | [3]; at 50.0 µM 99% | [5]; at 50.0 µM 95% | [6]; at 50.0 µM 98.6%
inactive: [1]; at 1.2 µM 1% | [1]; at 3.7 µM 7% | [1]; [7] 14% | [1]; at 11.0 µM 17% | [1]; at 33.0 µM 48% | [1]; [8] 20% | [1]; at 100.0 µM 69% | [2]; at 1.2 µM -3% | [2]; at 3.7 µM -2% | [2]; [7] -1% | [2]; at 11.0 µM 2% | [2]; at 33.0 µM 22% | [2]; [8] 12% | [2]; at 100.0 µM 41% | [3]; [7] 2% | [3]; [8] 6% | [4]; [7] 1% | [4]; [8] 7% | [4]; at 50.0 µM 42.8% | [5]; at 1.2 µM -6% | [5]; at 3.7 µM -5% | [5]; [7] -2% | [5]; at 11.0 µM -5% | [5]; at 33.0 µM 7% | [5]; [8] 7% | [5]; at 100.0 µM 33% | [6]; [7] -3% | [6]; [8] 16%

COc1ccc2c(C)c3cccc[n+]3cc2c1
inactive: [1]; at 50.0 µM 14.6% | [2]; [7] 59% | [2]; at 50.0 µM 3.7% | [3]; at 50.0 µM 12.7% | [4]; [7] 54% | [4]; at 50.0 µM 4.55% | [5]; [7] 57% | [5]; at 50.0 µM 37.6% | [6]; [7] 54% | [6]; at 50.0 µM 3.6%
active: [1]; [7] 75% | [1]; [8] 88% | [2]; [8] 88% | [3]; [7] 74% | [3]; [8] 90% | [4]; [8] 81% | [5]; [8] 86% | [6]; [8] 82%

CCOC(=O)C(c1ccc([N+](=O)[O-])cc1[N+](=O)[O-])c1ccc([N+](=O)[O-])cc1[N+](=O)[O-]
inactive: [1]; [7] 8% | [1]; [8] 31% | [1]; at 50.0 µM 56.6% | [2]; [7] 20% | [2]; [8] 61% | [2]; at 50.0 µM 36.8% | [3]; [7] 2% | [3]; [8] 61% | [3]; at 50.0 µM 69% | [4]; [7] 9% | [4]; [8] 32% | [4]; at 50.0 µM 54.6% | [5]; [7] 7% | [5]; [8] 45% | [5]; at 50.0 µM 41% | [6]; [7] 31% | [6]; [8] 63% | [6]; at 50.0 µM 57.3%

NC(Cc1cnc[nH]1)C(=O)O (stereo unspecified)
active: [1]; at 11.0 µM 97% | [1]; at 33.0 µM 98% | [1]; at 100.0 µM 99% | [2]; at 11.0 µM 75% | [2]; at 33.0 µM 97% | [2]; at 100.0 µM 99% | [5]; at 11.0 µM 95% | [5]; at 33.0 µM 98% | [5]; at 100.0 µM 99%
inactive: [1]; at 1.2 µM -55% | [1]; at 3.7 µM 51% | [1]; [7] 0% and -2% | [2]; at 1.2 µM -2% | [2]; at 3.7 µM 0% | [3]; [7] 0% [middle of 4 runs] | [4]; [7] 1% [middle of 5 runs] | [5]; at 1.2 µM 1% | [5]; at 3.7 µM 34% | [5]; [7] -3% [middle of 5 runs] | [6]; [7] 1% [middle of 5 runs]

COc1ccc([As]=O)cc1 (stereo unspecified)
active: [1]; [7] 95% | [1]; [8] 100% | [1]; at 50.0 µM 99.8% | [2]; [7] 99% | [2]; [8] 100% | [2]; at 50.0 µM 99.9% | [3]; [7] 96% | [3]; [8] 100% | [3]; at 50.0 µM 99.7% | [4]; [7] 96% | [4]; [8] 99% | [4]; at 50.0 µM 99.6% | [5]; [7] 98% | [5]; [8] 100% | [5]; at 50.0 µM 99.6% | [6]; [7] 97% | [6]; [8] 99% | [6]; at 50.0 µM 99.8%
